Test results published in paper PMC11694131 (Haematologica, 2024).

The chains behind the UniProt entries cited, without tags or fusion partners.
UniProt P10415, whole entry: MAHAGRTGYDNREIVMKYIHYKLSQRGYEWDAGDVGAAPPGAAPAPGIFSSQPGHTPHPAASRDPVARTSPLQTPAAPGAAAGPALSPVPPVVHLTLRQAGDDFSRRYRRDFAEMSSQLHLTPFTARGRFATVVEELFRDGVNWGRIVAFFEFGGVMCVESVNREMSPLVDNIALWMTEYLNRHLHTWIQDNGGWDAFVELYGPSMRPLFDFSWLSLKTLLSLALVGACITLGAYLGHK

Target: BCL2 (Homo sapiens, UniProt P10415)
Assay: biochemical
Format: binding

IC50: 0.75 nM
SMILES: CC1(C)CCC(c2ccc(Cl)cc2)=C(CN2CCN(c3ccc(C(=O)NS(=O)(=O)c4ccc(N[C@H](CCN5CCOCC5)CSc5ccccc5)c(S(=O)(=O)C(F)(F)F)c4)cc3)CC2)C1 [navitoclax]
